Toxicity data for one substance are collected here from patent US9045393B2, “Derivatives of 3.5-seco-4-norcholestane and use thereof” (TROPHOS, priority 2004, dated 2015).

This series in a line: Toxicological study in mice. In kind it is in vivo. Conditions: intra-peritoneal route, 30 mg/kg/day, daily administration up to 14 days.

Turning to “3,5-seco-4-nor-cholestan-5-one oxime-3-methyl alcohol [Compound 4]”, the toxicity entry was “did not show any significant toxicity”.
